# Several values for one entry are separate records, joined by “and”; a condition that tells them apart may be missing. Identical values can stand only once. The list shows a part of the results, in another mix than the full data. Activity calls are given as the source filed them.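 How the source made its calls: active means z-score of at least 1.8 in each of two replicates, scored against plate mean and spread of sample wells; inactive means the rest.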
# Experiment: galactose survival enhancers in mitochondrial complex I cybrids – cell-based, galactose medium, ATP luminescence, primary screen (AID 1645843);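 further: positive z means more ATP and so rescue of galactose-driven cybrid death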
# Details: complex I mutant cybrid cells, 72 h, active compounds read high
row,SMILES,z-score
1,CN(C(=O)Cc1ccc(Cl)c(Cl)c1)[C@@H]1CCCC[C@@H]1N1CCCC1,inactive: -0.63
2,CN(C(=O)Cc1ccc(Cl)c(Cl)c1)[C@H]1CCCC[C@@H]1N1CCCC1,inactive: -0.595 and inactive: -0.755 and inactive: -0.78
3,CN(C(=O)Cc1ccc(Cl)c(Cl)c1)[C@@H]1CCCC[C@H]1N1CCCC1,inactive: -0.635
4,CN(C(=O)Cc1ccc(Cl)c(Cl)c1)[C@@H]1CC[C@]2(CCCO2)C[C@H]1N1CCCC1,inactive: 0.34
5,CN(C(=O)Cc1ccccc1)[C@@H]1CC[C@]2(CCCO2)C[C@H]1N1CCCC1,inactive: -0.085

# Source: PubChem BioAssay AID1645843 (ICCB-Longwood Screening Facility, Harvard Medical School, 2021)
